Target: hERG channel (Homo sapiens, UniProt Q12809)

By UniProt entry, the sequences of proteins in these tests, tags left out. Where a name states a change or a piece, a line headed by the entry shows the natural chain unless it says otherwise.
UniProt Q12809: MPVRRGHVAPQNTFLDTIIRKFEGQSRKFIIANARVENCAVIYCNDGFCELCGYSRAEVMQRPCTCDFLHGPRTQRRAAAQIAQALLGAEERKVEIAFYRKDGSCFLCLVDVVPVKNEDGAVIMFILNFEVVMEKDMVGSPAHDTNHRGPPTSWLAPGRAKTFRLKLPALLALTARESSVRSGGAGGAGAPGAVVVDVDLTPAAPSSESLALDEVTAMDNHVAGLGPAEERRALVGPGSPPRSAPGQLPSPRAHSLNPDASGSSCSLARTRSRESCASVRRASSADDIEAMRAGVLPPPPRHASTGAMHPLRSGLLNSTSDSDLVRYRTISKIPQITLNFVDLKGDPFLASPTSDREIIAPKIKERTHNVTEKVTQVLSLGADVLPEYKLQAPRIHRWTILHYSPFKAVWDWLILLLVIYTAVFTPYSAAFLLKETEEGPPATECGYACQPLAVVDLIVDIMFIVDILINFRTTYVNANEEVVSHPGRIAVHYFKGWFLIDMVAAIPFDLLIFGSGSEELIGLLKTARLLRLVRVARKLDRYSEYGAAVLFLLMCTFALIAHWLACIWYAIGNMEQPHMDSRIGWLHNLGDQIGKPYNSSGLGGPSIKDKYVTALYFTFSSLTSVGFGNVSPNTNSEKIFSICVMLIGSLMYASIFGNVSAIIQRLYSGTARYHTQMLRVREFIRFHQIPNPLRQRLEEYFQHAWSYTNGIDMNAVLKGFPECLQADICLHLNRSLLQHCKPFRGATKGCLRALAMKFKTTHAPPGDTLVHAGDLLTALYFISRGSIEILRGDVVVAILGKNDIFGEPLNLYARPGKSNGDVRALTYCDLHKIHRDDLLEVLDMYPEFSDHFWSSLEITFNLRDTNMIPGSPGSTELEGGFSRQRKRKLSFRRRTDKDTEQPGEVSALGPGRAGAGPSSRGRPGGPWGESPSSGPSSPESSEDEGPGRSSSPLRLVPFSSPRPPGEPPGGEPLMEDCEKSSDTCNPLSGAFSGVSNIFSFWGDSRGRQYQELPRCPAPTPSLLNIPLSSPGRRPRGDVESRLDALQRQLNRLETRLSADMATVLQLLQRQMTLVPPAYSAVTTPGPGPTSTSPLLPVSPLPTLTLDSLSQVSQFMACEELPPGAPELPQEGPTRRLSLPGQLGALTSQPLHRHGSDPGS

Structure (SMILES): COc1cc(N)c(Cl)cc1C(=O)NC1CCN(CCCOc2ccc(F)cc2)CC1OC (stereo not shown) [Cisapride, reference compound]
- Inhibition of the hERG channel (in words): potent inhibition

Reference: PMC9722229 (European journal of pharmacology, 2019)
